# From publication PMC13376213, “Systematic discovery of motif-based interactions of the auxiliary domains of USP family deubiquitinases” (Nature Communications, 2026)
# The list shows a part of the results.
# Target: Ubiquitin carboxyl-terminal hydrolase 20 (UniProt Q9Y2K6)
# Test: mass-spectrometry hit list; affinity purification or IP with mass spectrometry
substance,measurement,value
"Phospholipid hydroperoxide glutathione peroxidase GPX4, P36969",listed as a hit,yes
